Test results published in US6331660A, “Maize DIMBOA biosynthesis genes” (Dekalb Genetics Corporation, priority 1998, dated 2001).

Test system: O=P(O)(O)OCC(O)C(O)c1c[nH]c2ccccc12
Assay: purified protein, by the assay type
Settings: other: 4 μg Bx1 protein, 22° C., indole-3-glycerol phosphate 0 to 50 μM, coupled with glyceraldehyde phosphate dehydrogenase and 0.5 mM NAD

Substance: maize Bx1 protein (Bx1 cDNA SEQ ID NO:1; polypeptide SEQ ID NO:2), expressed in E. coli, COOH-terminal histidine tag, independent of TSB (Zea mays)
- Km: 13 µM
- kcat: 2.8 s⁻¹
